The values below are quoted from earlier work in US20110257220A1, “3,11 b-cis-Dihydrotetrabenazine for the Treatment of Schizophrenia and Other Psychoses” (CAMBRIDGE LABORATORIES (IRELAND) LIMITED, priority 2005, published 2011).

Chains of the proteins cited; added tags and fusions are not shown.
UniProt Q01827, whole entry: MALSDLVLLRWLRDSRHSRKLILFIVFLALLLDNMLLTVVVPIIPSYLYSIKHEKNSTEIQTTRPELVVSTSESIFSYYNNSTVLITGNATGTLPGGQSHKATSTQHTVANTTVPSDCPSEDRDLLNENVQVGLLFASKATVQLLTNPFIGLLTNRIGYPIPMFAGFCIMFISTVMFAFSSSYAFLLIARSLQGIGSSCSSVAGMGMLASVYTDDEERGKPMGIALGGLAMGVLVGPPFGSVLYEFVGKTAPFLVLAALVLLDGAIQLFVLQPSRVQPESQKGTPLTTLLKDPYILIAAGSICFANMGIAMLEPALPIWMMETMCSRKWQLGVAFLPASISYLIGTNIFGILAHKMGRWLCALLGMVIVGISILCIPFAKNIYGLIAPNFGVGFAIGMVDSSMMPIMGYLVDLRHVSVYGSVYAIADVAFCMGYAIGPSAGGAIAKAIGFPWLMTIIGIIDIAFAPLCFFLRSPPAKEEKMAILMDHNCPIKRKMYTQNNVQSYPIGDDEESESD

This data set addresses VMAT2 (Rattus norvegicus, UniProt Q01827). Particulars: in vitro; Kilbourn et al.; cited from earlier work.

For the compound `COc1cc2c(cc1O[11CH3])CCN1C[C@@H](CC(C)C)[C@H](O)C[C@H]21` [(+)-α-[^11C]dihydrotetrabenazine], the “Ki for [3H]methoxytetrabenazine relative to Ki of the (−)-α isomer” value is reported as above 2000 fold.
